Yeast mating assay 2: variants of the scFv Ab-95

Antigen: PDVDLGDISGINAS, a 14-residue peptide of the SARS-CoV-2 spike HR2 region.

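The starting antibody came from a phage panning campaign against this peptide. Library AAYL52 holds single substitutions and randomly drawn double and triple substitutions in the CDRs. Affinity was read by AlphaSeq, a pooled yeast mating assay with surface-displayed partners. Mating (16 h, 30 °C) was followed by selection of diploids and sequencing of their barcodes. Each replicate has its own calibration line, from reference interactions of the BCL2 family. The assay was run in three technical replicates.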

Parent scFv Ab-95: VH joined to VL by the linker GGGGSGGGGSGGGGS. Changes lie in the light chain CDRs alone.
VH: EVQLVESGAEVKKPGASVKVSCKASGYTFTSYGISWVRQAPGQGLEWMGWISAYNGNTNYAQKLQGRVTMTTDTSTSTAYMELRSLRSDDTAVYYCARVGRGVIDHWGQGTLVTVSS
VL: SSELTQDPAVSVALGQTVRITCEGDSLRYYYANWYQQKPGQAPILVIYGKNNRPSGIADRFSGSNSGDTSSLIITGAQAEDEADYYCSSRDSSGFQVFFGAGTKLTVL

Each variant is given by its three light chain CDRs, as the data file delimits them; those of the parent are EGDSLRYYYAN, GKNNRPS, SSRDSSGFQVF.
Every variant below is changed at F98 of the VL (sequential numbering).
The read-out is the apparent dissociation constant on a log10 scale (nM): the lower, the stronger.
Replicates are averaged; those with no signal do not enter the mean.
Where no diploid with the target was found in that replicate, the entry reads "ND": below detection, most likely a poor binder, though not proof of it.
Parent in this assay: reference entry 2.31, copy in this library 2.25.
As a blank, each scFv also met three strains without target: over library AAYL52, 28% of these pairings were detected, typically at 3.91 and seldom below 2.90. Also given: how often the same scFv was detected with the empty control strains.

The variant HGDSLRYYYAN | GKNNRPS | SSRDSSGFQVW gave 2.42, 2.21, 1.81 (mean 2.15; controls 2 of 9). The variant EGDSLRYMYAN | GKNNRPS | SSEDSSGFQVL showed 2.27, 2.23, 2.19 (mean 2.23; controls 4 of 9). The variant EGDSLRYYYAN | GKNNRPS | SSRDSSGHQVI gave 2.36, 2.61, 2.76 (mean 2.58; controls 2 of 9). The variant EGDSLRYYYAN | GKNNRWS | SSRISSGFQVL showed 4.23, 5.52, ND (mean 4.88; controls 1 of 9). For EGDSLRYTYAC | GKNNRPS | SSRDSSGFQVY, the assay gave 5.27, 3.46, 3.39 (mean 4.04; controls 3 of 9).

The variant ECDSLRYYYAN | GINNRPS | SSRDSSGFQVA showed 2.95, ND, 2.27 (mean 2.61; controls 4 of 9). For EGDSLRYYYAN | GKNNEPS | SSLDSSGFQVG, the assay gave 5.00, 4.08, 2.71 (mean 3.93; controls 1 of 9). The variant EGDSLRYYIQN | GKNNRPS | SSRDSSGFQVT gave ND, 4.31, ND (controls 3 of 9). The variant EGDSLRYYYAN | GKNNQPI | SSRDSSGFQVS gave 4.18, 4.34, ND (mean 4.26; controls 3 of 9). For EDDSLRYYYAN | GKNNRPS | NSRDSSGFQVN, the assay gave 1.58, 2.02, 1.10 (mean 1.57; controls 2 of 9).

The variant EGDSLAYYYAN | SKNNRPS | SSRDSSGFQVS gave 3.09, 4.11, ND (mean 3.60; controls 1 of 9). With EGDSLRYYYAN | GKNNRPS | SSRESSGFKVT the result was 2.78, 3.62, 2.77 (mean 3.06; controls 2 of 9). The variant EGDSLRYYYAN | GKNNRHS | SSRDSSGFQVW gave 3.19, 2.57, 2.23 (mean 2.66; controls 1 of 9). For EGDSLRYYYAN | GKNNRTS | SSRDSSGFCVC, the assay gave 4.98, 3.18, ND (mean 4.08; controls 3 of 9). For EGDSLRYYYAN | GKNNGPS | SSFDSSGFQVK, the assay gave ND, ND, ND (controls 0 of 9).

With EQDSLRYYYSN | GKNNRPS | SSRDSSGFQVQ the result was 3.58, 5.47, ND (mean 4.52; controls 3 of 9). The variant EGDKLRYYYAN | GKNNRPS | SSRDSSGFQVP gave ND, ND, 4.80 (controls 3 of 9). The variant EGDSLRYYYAN | HKNNRPS | SSRDSSGGQVG showed ND, ND, ND (controls 1 of 9). With EGDSLRYYYAN | GKNNRPS | SQRDSDGFQVL the result was ND, ND, ND (controls 0 of 9). The variant EGDSLRYYYAV | GKNNHPS | SSRDSSGFQVE gave ND, ND, ND (controls 1 of 9).

The variant EGDSLRWYYAN | GKNNRPS | VSRDSSGFQVI gave ND, ND, 4.06 (controls 3 of 9). With SGDSLRYYYAN | GKNNRPS | GSRDSSGFQVG the result was 2.89, 3.10, 2.82 (mean 2.93; controls 3 of 9). The variant EGDSLRYYYAN | GKNNRPS | SSRKSSGFQYM showed 2.16, 2.12, 1.69 (mean 1.99; controls 1 of 9). With EYDSLRYYYAI | GKNNRPS | SSRDSSGFQVH the result was 2.75, 2.70, 2.00 (mean 2.48; controls 1 of 9). For EGDSLRYYYAA | GKLNRPS | SSRDSSGFQVE, the assay gave 4.64, ND, ND (controls 2 of 9).

For EGDSLRYYYAN | GCNNRPC | SSRDSSGFQVG, the assay gave 4.30, 5.58, 4.42 (mean 4.77; controls 5 of 9). The variant EGDFLRYYYAN | GKNNRPS | SSRDSSGFQVC gave 2.64, 2.45, 2.21 (mean 2.43; controls 0 of 9). The variant EGDSLRYYYAE | GKNNRPS | SSRDKSGFQVY gave 4.27, 5.04, ND (mean 4.65; controls 1 of 9). The variant EGDSLKYYYAN | GKNNRPS | SDRDSSGFQVA showed 2.92, 3.40, 3.58 (mean 3.30; controls 3 of 9). The variant EGDSLRCYYAN | GKNHRPS | SSRDSSGFQVR gave ND, ND, ND (controls 1 of 9).

For EGDSLRYYYAN | GKNMRPS | SSIDSSGFQVA, the assay gave 2.65, 2.85, 1.87 (mean 2.46; controls 2 of 9). The variant EGDSLRYYQAN | GKNNRPS | SSRDSSGFQVM showed 2.10, 1.56, 1.49 (mean 1.71; controls 0 of 9). The variant EGDHLRYYYAN | GKNNRPS | MSRDSSGFQVC showed 1.77, 1.73, 1.44 (mean 1.65; controls 1 of 9). With EGASLRYYYGN | GKNNRPS | SSRDSSGFQVC the result was 2.67, 2.35, 2.70 (mean 2.57; controls 3 of 9). For EGKSLRYYYAH | GKNNRPS | SSRDSSGFQVY, the assay gave 2.30, 2.74, 2.12 (mean 2.39; controls 1 of 9).

With EGDSLRYVYAI | GKNNRPS | SSRDSSGFQVC the result was 4.06, ND, ND (controls 4 of 9). For EGDSLRYYYAN | GKNNRPS | SSRDYVGFQVR, the assay gave 4.24, ND, ND (controls 0 of 9). With EGDSLRYYYQN | GKNNDPS | SSRDSSGFQVP the result was 3.45, 4.40, 4.44 (mean 4.10; controls 3 of 9). For EGDSLRYYYAN | GKRNRPH | SSRDSSGFQVD, the assay gave ND, 2.95, 3.39 (mean 3.17; controls 1 of 9). With EGDELRYYYAN | GKNNRPS | SSRDSSGFAVN the result was ND, ND, ND (controls 0 of 9).

With AGDSLRYYYAN | GKNYRPS | SSRDSSGFQVN the result was 3.15, 3.00, 2.72 (mean 2.96; controls 2 of 9). For EGDSLRSWYAN | GKNNRPS | SSRDSSGFQVY, the assay gave 2.09, 2.36, 1.68 (mean 2.04; controls 1 of 9). With EGDSLRYYYAN | MKNNRES | SSRDSSGFQVG the result was ND, 4.43, 4.63 (mean 4.53; controls 2 of 9). The variant EGDSLRYYYAN | GKNNRPS | SSRPSSGFQVN showed 3.83, 2.84, 2.92 (mean 3.20; controls 3 of 9). For EGDSLRYYYAN | HKNNRPS | SSRWSSGFQVY, the assay gave ND, 4.34, ND (controls 2 of 9).

The variant EGDSLRWYYAN | GKNNRPQ | SSRDSSGFQVD gave 3.62, 2.68, 3.46 (mean 3.25; controls 3 of 9). For EGDSERYYYAN | GKNNRPS | SSRDSSGFQVD, the assay gave ND, 4.19, ND (controls 6 of 9). The variant EGDSLRYYYAN | GKFNRSS | SSRDSSGFQVT showed ND, ND, 4.52 (controls 4 of 9). With EGDSLRYYYAN | GKNNRRS | SSRDSSGFQVL the result was 4.73, 3.06, ND (mean 3.90; controls 1 of 9). With EGDSLWYYYAN | GKNNRPS | SSRDSSGFQVW the result was 3.33, 3.63, 3.46 (mean 3.48; controls 4 of 9).

The variant AGDSLNYYYAN | GKNNRPS | SSRDSSGFQVC gave 2.35, 2.11, 2.30 (mean 2.25; controls 5 of 9). With EGDSLRTYYAN | GKNNRPS | SSRDSSGFQVL the result was 2.46, 2.24, 1.66 (mean 2.12; controls 2 of 9).

For reference, 4 entries of the list once more:

CDR-L1,CDR-L2,CDR-L3,"log10 Kd, replicates",mean log10 Kd (nM),signal with controls
EGDFLRYYYAN,GKNNRPS,SSRDSSGFQVC,"2.64, 2.45, 2.21",2.43,0/9
EGDSLRYYYAN,GKNNRPS,SSRKSSGFQYM,"2.16, 2.12, 1.69",1.99,1/9
EGDSLRYYYAE,GKNNRPS,SSRDKSGFQVY,"4.27, 5.04, ND",4.65,1/9
EGDKLRYYYAN,GKNNRPS,SSRDSSGFQVP,"ND, ND, 4.80",4.80,3/9

The measurements come from Engelhart et al. 2022 (doi:10.1038/s41597-022-01779-4) through the FLAb antibody collection.